Test results from PMC4619462, “Description of the first fungal dye-decolorizing peroxidase oxidizing manganese(II)” (Applied Microbiology and Biotechnology, 2015).

Test system: CCn1c(=NN=c2sc3cc(S(=O)(=O)O)ccc3n2CC)sc2cc(S(=O)(=O)O)ccc21
Assay: purified protein
Settings: 0.25 mM H2O2, 0.1 M tartrate pH 3.5, 25 °C

## Pleos-DyP1 (Pleurotus ostreatus PC15)
  Km: 779 ± 69 µM
  kcat: 208 ± 8 s⁻¹
  kcat/Km: 267000 M⁻¹ s⁻¹
